## AlphaSeq binding of Ab-14 light chain variants to a spike HR2 peptide

All variants were tested on one target, the spike HR2 peptide PDVDLGDISGINAS (SARS-CoV-2).

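This is the validation round: designs drawn from the data on random variants, tested in the same kind of assay. Their group label is 14L_Ctrl (Ctrl: baseline library sampled from a position-specific scoring matrix, with some repeated check sequences). The scFvs were displayed on barcoded MATa yeast, the peptide on MATalpha yeast. Binding brings cells together so that they mate, and sequencing counts the barcode pairs among the diploids. Scores were corrected for input abundance and mapped to Kd with protein pairs of known affinity run in the same pool. The assay was run in six technical replicates.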

Each scFv is VH, a (GGGGS)3 linker, VL, as in the parent Ab-14, and differs from it in the CDRs of the light chain only.
VH: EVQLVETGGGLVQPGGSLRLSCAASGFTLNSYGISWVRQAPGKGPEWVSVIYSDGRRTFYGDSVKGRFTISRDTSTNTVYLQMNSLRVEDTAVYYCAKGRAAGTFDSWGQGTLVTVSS
VL: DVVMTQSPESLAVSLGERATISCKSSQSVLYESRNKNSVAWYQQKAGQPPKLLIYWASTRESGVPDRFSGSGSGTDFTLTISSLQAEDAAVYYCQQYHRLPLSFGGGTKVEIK

Changes read parent residue, position, new residue, counted from the first residue of the VL shown. Values are log10 of the apparent Kd in nM; lower means stronger binding. Where no diploid with the target was found in that replicate, the entry reads "nd": below detection, most likely a poor binder, though not proof of it. In the paper, a design with two or fewer of six values counts as a poor binder.

The variant S38P Q95Y L102W showed nd, nd, nd, nd, nd, nd (controls 0 of 18).
The variant S25G W56E S58T showed 0.48, 0.25, 0.39, 0.30, -0.06, 0.57 (controls 1 of 18).
The variant V29E R34M showed 0.75, 1.40, nd, 1.08, 1.14, 0.65 (controls 2 of 18).
The variant R34E H98M showed 0.57, 0.57, 0.73, 0.24, -0.01, 0.08 (controls 0 of 18).
The variant Y31L S38Q showed nd, nd, 2.51, nd, nd, nd (controls 1 of 18).
The variant R34T W56Q Q96T showed 0.46, 0.45, 0.52, 0.79, 0.61, 0.72 (controls 1 of 18).
The variant S25R S26Q R34T showed nd, nd, nd, 2.17, nd, nd (controls 0 of 18).
The variant S25T V29W L30N showed 0.94, 1.40, 1.19, 1.03, 1.35, 1.39 (controls 1 of 18).
The variant Q27P L30G S33E R34F S38A W56G showed 0.49, 0.41, 0.12, 1.69, 0.00, 0.79 (controls 0 of 18).
The variant K24H L30P W56S S62W showed 1.03, 0.78, 0.89, 0.59, 0.68, 1.13 (controls 2 of 18).
The variant K36T W56A H98A showed 0.63, 0.89, 0.81, 0.42, 0.19, 0.37 (controls 1 of 18).
The variant S25V Y31P showed 0.77, 0.86, 0.90, 0.80, 1.35, 0.41 (controls 0 of 18).
The variant S25D Q27Y E61I showed 1.45, 1.34, 1.37, 1.63, 1.33, 2.23 (controls 2 of 18).
The variant Y31K R34Q W56H showed 0.68, 0.86, 0.56, 0.81, 0.47, 0.72 (controls 1 of 18).
The variant K24L L100V L102E showed nd, nd, nd, nd, nd, nd (controls 0 of 18).
The variant L30W K36S S62D showed 0.84, 0.65, 0.28, 0.64, 0.52, 0.79 (controls 0 of 18).
The variant S26R S58M showed nd, nd, nd, nd, nd, nd (controls 0 of 18).
The variant V29E K36C S58K showed nd, nd, nd, nd, nd, nd (controls 0 of 18).
The variant V29Q R60T S103K showed nd, nd, nd, nd, nd, nd (controls 1 of 18).
The variant Q27N S33E showed nd, 2.04, 1.39, nd, nd, 1.11 (controls 0 of 18).
The variant R34T N37V showed nd, nd, 1.98, nd, 1.30, nd (controls 0 of 18).
The variant R34S K36V S62V L102V showed nd, nd, nd, nd, nd, nd (controls 0 of 18).
The variant L30F N37P W56S T59L S103G showed nd, nd, nd, 1.63, 1.72, nd (controls 1 of 18).
The variant S26M Y31A R34P W56Q showed 0.26, 0.06, -0.04, 0.05, 0.20, 0.21 (controls 1 of 18).
The variant V29F Y31G showed 0.70, 0.98, 1.60, 0.68, 0.84, 0.68 (controls 0 of 18).
The variant N37H W56N H98I showed 0.85, 1.25, 0.79, 1.45, 0.95, 3.10 (controls 0 of 18).
The variant R99S showed 1.36, 1.08, 2.74, 1.49, 2.02, 2.09 (controls 0 of 18).
The variant S25G N35Y S62D showed nd, nd, nd, nd, nd, 2.25 (controls 0 of 18).
The variant S25A L30I W56A H98S showed 0.70, 0.56, -0.02, 0.19, 0.22, 0.19 (controls 0 of 18).
The variant K24T S25G V29W R34I W56Q showed 0.19, -0.07, -0.34, -0.36, -0.12, -0.11 (controls 0 of 18).
The variant R34A showed 2.02, 1.20, 0.64, 0.83, 1.66, 1.31 (controls 1 of 18).

Repeated from above, the 2 best binders with a signal in all replicates:

{"changes": "K24T S25G V29W R34I W56Q", "log10 Kd (nM) by replicate": "0.19, -0.07, -0.34, -0.36, -0.12, -0.11", "control signals": "0/18"}
{"changes": "S26M Y31A R34P W56Q", "log10 Kd (nM) by replicate": "0.26, 0.06, -0.04, 0.05, 0.20, 0.21", "control signals": "1/18"}

The parent sequence was in this pool as ten entries: three were never detected, three once, and four in most replicates, with averages from 0.34 to 2.37. Three control strains display no target. For all light chain designs, 4% of the pairings with them gave a signal, with a median of 2.64 and one signal in twenty below 1.59, so weak values seen in few replicates may be background. Also given: how often the same scFv was detected with the empty control strains. A sequence measured in both rounds can read differently, since the two assays cover different ranges.

Values reported by Li et al. 2023, doi:10.1038/s41467-023-39022-2 (FLAb copy).